{"sequences": {"note": "Amino acid sequences for entries named in this document (tags omitted). A change or cut given only in a name is not applied to a line headed by its entry.", "UniProt Q9Y5Y4": "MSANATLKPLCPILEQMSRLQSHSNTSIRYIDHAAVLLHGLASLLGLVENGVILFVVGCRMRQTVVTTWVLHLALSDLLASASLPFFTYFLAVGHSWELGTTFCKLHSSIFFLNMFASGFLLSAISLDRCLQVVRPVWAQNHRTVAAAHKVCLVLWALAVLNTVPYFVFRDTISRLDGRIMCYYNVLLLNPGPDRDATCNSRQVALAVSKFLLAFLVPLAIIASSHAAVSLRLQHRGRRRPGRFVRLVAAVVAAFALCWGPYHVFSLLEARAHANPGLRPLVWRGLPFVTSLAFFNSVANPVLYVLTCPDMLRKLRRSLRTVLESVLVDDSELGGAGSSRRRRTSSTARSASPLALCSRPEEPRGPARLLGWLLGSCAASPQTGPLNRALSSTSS"}, "source": "patent US9169270B2", "about": "“1-phenyl-substituted heterocyclyl derivatives and their use as prostaglandin D2 receptor modulators” (Actelion Pharmaceuticals Ltd., priority 2012, dated 2015)"}
{"target": "hCRTH2 receptor (Homo sapiens (Human), UniProt Q9Y5Y4)", "assay": "hCRTH2 receptor membranes radioligand (3H-PGD2) displacement assay", "conditions": "hCRTH2 membrane fragments, Binding-Buffer with 0.1% BSA", "protocol": "Biological Assays: Preparation of hCRTH2 Receptor Membranes and Radioligand Displacement Assay:\nFirst, recombinant HEK293-hCRTH2 cells were detached from culture plates into 5 ml buffer A/plate (Buffer A: 5 mM Tris, 1 mM MgCl2-6H2O pH=7.4) using a rubber policeman. Cells were then transferred into centrifugation tubes and centrifuged for 5 min at 400 g. The cell pellet was resuspended in the same buffer and tubes were frozen at −80° C. Cells were thawed and membrane fragments were generated by homogenization using a polytron homogenizer (30 seconds). The membrane fragments were then centrifuged at 3000 g for 20 minutes and resuspended in buffer C (Buffer C: 75 mM Tris, 25 mM MgCl2, 250 mM Saccharose pH 7.4). Aliquots of membrane fragments were stored at −20° C.\nBinding assay was performed in a final assay volume of 250 μl. First, 25 μl of test compound, previously diluted in Binding-Buffer (Binding-Buffer: 50 mM Tris-Base, 100 mM NaCl, 1 mM EDTA, 0.1% BSA (protease free), 0.01% NaN3, 10 mM MnCl2, pH 7.0) was placed into each well. After addition of 75 μl Binding-Buffer, 50 μl of the radioligand ^3H-PGD2 (at 2.5 nM (220.000 dpm/well) from ANAWA ART0662) was added to each well. Binding assay was started by addition of 100 μl CRTH2 membrane fragments, reaching a final concentration of 20 μg/well. For non-specific binding, PGD2 was added to the reaction mixture to […] final concentration. This assay mix was incubated for 90 minutes at room temperature and then filtered through a GF/C filter 96-well plate which was pre-soaked for 3 hours in 0.5% polyethyleneimine (PEI). The filter-wells were washed three times with ice cold Binding-Buffer. Then, 40 μl of Microscint-40 (Packard) was added to each well and the retained radioactivity quantified in a Topcount (Packard).", "units": {"IC50": "nM"}}
{"compound": "O=C(O)COc1ccc(Cl)cc1C1c2scnc2CCN1C(=O)NCc1ccccc1", "note": "(racemic) [Example 4, (±)-[2-(5-Benzylcarbamoyl-4,5,6,7-tetrahydro-thiazolo[5,4-c]pyridin-4-yl)-4-chloro-phenoxy]-acetic acid]", "IC50": 62}
{"compound": "Nc1nc2c(s1)C(c1cc(Cl)ccc1OCC(=O)O)N(C(=O)OCc1ccccc1)CC2", "note": "(racemic) [Example 17, (±)-2-Amino-4-(2-carboxymethoxy-5-chloro-phenyl)-6,7-dihydro-4H-thiazolo[5,4-c]pyridine-5-carboxylic acid benzyl ester]", "IC50": 2.2}
{"compound": "Cn1cc(CCC(=O)N2CCc3ncsc3C2c2cc(Cl)ccc2OCC(=O)O)c2ccccc21", "note": "(racemic) [Example 28, (±)-(4-Chloro-2-{5-[3-(1-methyl-1H-indol-3-yl)-propionyl]-4,5,6,7-tetrahydro-thiazolo[5,4-c]pyridin-4-yl}-phenoxy)-acetic acid]", "IC50": 15.7}
{"compound": "O=C(O)COc1ccc(Cl)cc1C1c2scnc2CCN1C(=O)CCn1ncc2ccccc21", "note": "(racemic) [Example 33, (±)-{4-Chloro-2-[5-(3-indazol-1-yl-propionyl)-4,5,6,7-tetrahydro-thiazolo[5,4-c]pyridin-4-yl]-phenoxy}-acetic acid]", "IC50": 18}
{"compound": "Cc1noc(C)c1CCC(=O)N1CCc2ncsc2C1c1cc(Cl)ccc1OCC(=O)O", "note": "(racemic) [Example 42, (±)-(4-Chloro-2-{5-[3-(3,5-dimethyl-isoxazol-4-yl)-propionyl]-4,5,6,7-tetrahydro-thiazolo[5,4-c]pyridin-4-yl}-phenoxy)-acetic acid]", "IC50": 945}
{"compound": "O=C(O)COc1ccc(Cl)cc1C1c2scnc2CCN1C(=O)C1CC1", "note": "(racemic) [Example 43, (±)-[4-Chloro-2-(5-cyclopropanecarbonyl-4,5,6,7-tetrahydro-thiazolo[5,4-c]pyridin-4-yl)-phenoxy]-acetic acid]", "IC50": 472}
{"compound": "O=C(O)COc1ccc(Cl)cc1C1c2scnc2CCN1C(=O)CCN1CCCc2ccccc21", "note": "(racemic) [Example 53, (±)-{4-Chloro-2-[5-(3-3,4-dihydro-2H-quinolin-1-yl-propionyl)-4,5,6,7-tetrahydro-thiazolo[5,4-c]pyridin-4-yl]-phenoxy}-acetic acid]", "IC50": 14.4}
{"compound": "O=C(O)COc1ccc(Cl)cc1C1c2scnc2CCN1C(=O)/C=C/c1ccc(F)cc1", "note": "(racemic) [Example 55, (±)-(4-Chloro-2-{5-[(E)-3-(4-fluoro-phenyl)-acryloyl]-4,5,6,7-tetrahydro-thiazolo[5,4-c]pyridin-4-yl}-phenoxy)-acetic acid]", "IC50": 21.7}
{"compound": "O=C(O)COc1ccc(Cl)cc1C1c2scnc2CCN1C(=O)OCc1cccc(Cl)c1", "note": "(racemic) [Example 85, (±)-4-(2-Carboxymethoxy-5-chloro-phenyl)-6,7-dihydro-4H-thiazolo[5,4-c]pyridine-5-carboxylic acid 3-chloro-benzyl ester]", "IC50": 7}
{"compound": "O=C(O)COc1ccc(Cl)cc1C1c2scnc2CCN1C(=O)OCc1c(Cl)cccc1Cl", "note": "(racemic) [Example 87, (±)-4-(2-Carboxymethoxy-5-chloro-phenyl)-6,7-dihydro-4H-thiazolo[5,4-c]pyridine-5-carboxylic acid 2,6-dichloro-benzyl ester]", "IC50": 8.7}
{"compound": "O=C(O)COc1ccc(Cl)cc1C1c2scnc2CCN1C(=O)OCc1cnccn1", "note": "(racemic) [Example 95, (±)-4-(2-Carboxymethoxy-5-chloro-phenyl)-6,7-dihydro-4H-thiazolo[5,4-c]pyridine-5-carboxylic acid pyrazin-2-ylmethyl ester]", "IC50": 32.2}
{"compound": "COc1ccccc1CNC(=O)N1CCc2ncsc2C1c1cc(Cl)ccc1OCC(=O)O", "note": "(racemic) [Example 109, (±)-{4-Chloro-2-[5-(2-methoxy-benzylcarbamoyl)-4,5,6,7-tetrahydro-thiazolo[5,4-c]pyridin-4-yl]-phenoxy}-acetic acid]", "IC50": 5.5}
{"compound": "COc1ccccc1CNC(=S)N1CCc2ncsc2C1c1cc(Cl)ccc1OCC(=O)O", "note": "(racemic) [Example 110, (±)-{4-Chloro-2-[5-(2-methoxy-benzylthiocarbamoyl)-4,5,6,7-tetrahydro-thiazolo[5,4-c]pyridin-4-yl]-phenoxy}-acetic acid]", "IC50": 9.5}
{"compound": "CN(C)c1nc2c(s1)C(c1cc(Cl)ccc1OCC(=O)O)N(C(=O)OCc1ccccc1)CC2", "note": "(racemic) [Example 117, (±)-4-(2-Carboxymethoxy-5-chloro-phenyl)-2-dimethylamino-6,7-dihydro-4H-thiazolo[5,4-c]pyridine-5-carboxylic acid benzyl ester]", "IC50": 204}
{"compound": "O=C(O)COc1ccc(Cl)cc1[C@@H]1c2scnc2CCN1C(=O)[C@@H]1C[C@H]1c1ccccc1", "note": "[Example 5, {4-Chloro-2-[(R)-5-((1R,2R)-2-phenyl-cyclopropanecarbonyl)-4,5,6,7-tetrahydro-thiazolo[5,4-c]pyridin-4-yl]-phenoxy}-acetic acid]", "IC50": 2.5}
{"compound": "O=C(O)COc1ccc(Cl)cc1[C@@H]1c2scnc2CCN1C(=O)[C@H]1C[C@@H]1c1ccccc1", "note": "[Example 6, {4-Chloro-2-[(R)-5-((1S,2S)-2-phenyl-cyclopropanecarbonyl)-4,5,6,7-tetrahydro-thiazolo[5,4-c]pyridin-4-yl]-phenoxy}-acetic acid]", "IC50": 871}
{"compound": "O=C(O)COc1ccc(Cl)cc1[C@@H]1c2scnc2CCN1C(=O)OCc1ccc(F)cc1F", "note": "[Example 59, (R)-4-(2-Carboxymethoxy-5-chloro-phenyl)-6,7-dihydro-4H-thiazolo[5,4-c]pyridine-5-carboxylic acid 2,4-difluoro-benzyl ester]", "IC50": 0.4}
{"compound": "O=C(O)COc1ccc(Cl)cc1[C@@H]1c2scnc2CCN1C(=O)OCC1CCCCC1", "note": "[Example 66, (R)-4-(2-Carboxymethoxy-5-chloro-phenyl)-6,7-dihydro-4H-thiazolo[5,4-c]pyridine-5-carboxylic acid cyclohexylmethyl ester]", "IC50": 0.7}
{"compound": "O=C(O)COc1ccc(Cl)cc1[C@@H]1c2scnc2CCN1C(=O)OCc1cc(Cl)ccc1F", "note": "[Example 68, (R)-4-(2-Carboxymethoxy-5-chloro-phenyl)-6,7-dihydro-4H-thiazolo[5,4-c]pyridine-5-carboxylic acid 5-chloro-2-fluoro-benzyl ester]", "IC50": 0.5}
{"compound": "O=C(O)COc1ccc(Cl)cc1[C@@H]1c2scnc2CCN1C(=O)OCc1c(F)cccc1F", "note": "[Example 73, (R)-4-(2-Carboxymethoxy-5-chloro-phenyl)-6,7-dihydro-4H-thiazolo[5,4-c]pyridine-5-carboxylic acid 2,6-difluoro-benzyl ester]", "IC50": 0.3}
{"compound": "O=C(O)COc1ccc(Cl)cc1[C@@H]1c2scnc2CCN1C(=O)OCc1cccc(F)c1", "note": "[Example 76, (R)-4-(2-Carboxymethoxy-5-chloro-phenyl)-6,7-dihydro-4H-thiazolo[5,4-c]pyridine-5-carboxylic acid 3-fluoro-benzyl ester]", "IC50": 0.2}
{"compound": "O=C(O)COc1ccc(Cl)cc1[C@@H]1c2scnc2CCN1C(=O)OCc1ccccc1", "note": "[Example 103, (R)-4-(2-Carboxymethoxy-5-chloro-phenyl)-6,7-dihydro-4H-thiazolo[5,4-c]pyridine-5-carboxylic acid benzyl ester]", "IC50": 2.3}
{"compound": "O=C(O)COc1ccc(Cl)cc1[C@H]1c2scnc2CCN1C(=O)OCc1ccccc1", "note": "[Example 104, (S)-4-(2-Carboxymethoxy-5-chloro-phenyl)-6,7-dihydro-4H-thiazolo[5,4-c]pyridine-5-carboxylic acid benzyl ester]", "IC50": 286}
